Reference: patent publication US20260209200A1, “SALTS OF A DIHYDROOROTATE DEHYDROGENASE (DHOD) INHIBITOR” (priority 2022, published 2026)

Assay: Kinetic solubility of PP-001 salts in FaSSIF (HPLC)
Assay type: physicochemical
Settings: 4 mL FaSSIF, 25° C., target 2 mg/mL
Procedure: Approximately 8 mg (calculated as freebase) of each salt was weighed out into each glass vial and then 4 ml of FaSSIF was added (target concentration was 2 mg/mL). The sample was kept stirring on a magnetic stirrer at a speed of I 00 RPM under 25° C. Then at the time points of initial, 0.5 hr, 1 hr, 2 hrs and 24 hrs, 0.5 mL of sample solution was transferred into 1.5 mL centrifugation tube and centrifuged at 12,000 RPM for 10 min. The supernatant was diluted by 50% ACN suitable and analyzed by HPLC.
An HPLC method of testing solubility was performed as follows in Table A: […]

Appearance after stirring for 24 hours: suspension
Final pH: 6.49
Solubility at different time points, 0.5 h (0.5 h): 220 µg/mL
Solubility at different time points, 1 h (1 h): 210 µg/mL
Solubility at different time points, 2 h (2 h): 220 µg/mL
Solubility at different time points, 24 h (listed as Zn): 260 µg/mL
Solubility at different time points, 24 h (listed as Zn cation): 260 µg/mL
Solubility at different time points, Initial (initial): 190 µg/mL
Substance: Zinc
